# ChEMBL document CHEMBL1142853, “SAR of psilocybin analogs: discovery of a selective 5-HT 2C agonist” (Bioorg Med Chem Lett, 2005)
# Chains of the proteins cited; added tags and fusions are not shown.
# UniProt P41595, whole entry: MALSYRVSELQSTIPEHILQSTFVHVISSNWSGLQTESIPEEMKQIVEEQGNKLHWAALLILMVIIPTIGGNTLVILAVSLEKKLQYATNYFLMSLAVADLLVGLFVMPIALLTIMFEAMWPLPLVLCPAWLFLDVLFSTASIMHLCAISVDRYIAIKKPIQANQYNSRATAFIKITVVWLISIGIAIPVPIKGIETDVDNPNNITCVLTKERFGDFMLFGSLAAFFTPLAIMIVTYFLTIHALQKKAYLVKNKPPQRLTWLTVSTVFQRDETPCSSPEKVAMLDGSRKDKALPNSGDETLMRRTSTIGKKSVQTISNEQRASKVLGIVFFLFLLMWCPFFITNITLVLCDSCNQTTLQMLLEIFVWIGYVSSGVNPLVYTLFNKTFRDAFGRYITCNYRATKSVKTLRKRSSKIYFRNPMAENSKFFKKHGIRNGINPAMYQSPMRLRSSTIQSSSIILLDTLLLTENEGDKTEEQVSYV
# Target: 5-hydroxytryptamine receptor 2B (Homo sapiens, UniProt P41595)
# Assay: Effective concentration required for accumulation of [3H]inositol phosphate in cells transiently expressing human 5-hydroxytryptamine 2B receptor determined by phosphoinositide hydrolysis assay
# Type: functional
structure (smiles),measurement,value
CN(C)CCc1c[nH]c2cccc(O)c12 [PSILOCIN],EC50,58 nM
CN(C)CCc1c[nH]c2cccc(OP(=O)(O)O)c12 [PSILOCYBIN],EC50,74 nM
